# Test system: StAR protein
# Assay: Synthesis of StAR protein in MA-10 cells after CRH, dbcAMP or hCG
# Type: cell-based, mouse
# Description: The maximum response to dbcAMP occurred at 6 hr post stimulation.
substance,measurement,value
hCG: human chorionic gonadotropin,synthesis of the StAR protein,significantly lower than those seen with CRH or dbcAMP

# Source: patent publication US6903183B1, “Compositions and methods for regulation of steroidogenesis” (Texas Tech University Health Services Center, priority 1996, dated 2005)
